Test: Potentiometric titration, first pKa
Format: physicochemical
Conditions: 100 mM KCl, degassed, KOH titration
Experimental: In order to investigate the relationship between coating pH and deprotonation, coating precursor molecules were studied via potentiometric titrations. A solution of tannic acid was made by dissolving ˜1 mg in 2 mL of 100 mM KCl in a glass test tube to perform the titration. The TA and KOH solutions were degassed by aggressively sparging argon for no less than 30 min. Base was titrated in 1.0 μL increments, and the total amount added was 250 μL. If oxygen is purged correctly, the phenolic solution should display little or no change in color throughout the titration. The first pKa was calculated by initially plotting the volume of base added versus pH. The first derivative of this curve was then plotted as a function of pH, and the pKa was calculated by determining the pH associated with any local maxima.
Following a similar procedure, the first pKa values for PG, catechol, catechin, HHQ, and EGCG were determined via potentiometric titration (Table 7).

Substance: (+)-catechin
- First pKa: 9.2
